The text below walks through data of PMC9492542, “Brain-restricted mTOR inhibition with binary pharmacology” (Nature, 2022).

Chains of the proteins cited; added tags and fusions are not shown.
UniProt P62942, whole entry: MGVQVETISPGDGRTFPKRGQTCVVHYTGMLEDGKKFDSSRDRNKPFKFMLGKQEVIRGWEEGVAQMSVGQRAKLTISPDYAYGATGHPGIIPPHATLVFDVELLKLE

One assay concerns the target FKBP12 (Homo sapiens, UniProt P62942). Put plainly: Competition fluorescence polarization assay with FITC-rapamycin tracer. Particulars: for Kd: Kd (FKBP12), recombinant FKBP12, Extended Data Fig. 2. (Polarisation of emitted light reports the rotation of a fluorescent probe.)
The target of the next assay is T1, 476 purified kinases (Homo sapiens, UniProt P29320).
T1 sequence (P29320 21-983): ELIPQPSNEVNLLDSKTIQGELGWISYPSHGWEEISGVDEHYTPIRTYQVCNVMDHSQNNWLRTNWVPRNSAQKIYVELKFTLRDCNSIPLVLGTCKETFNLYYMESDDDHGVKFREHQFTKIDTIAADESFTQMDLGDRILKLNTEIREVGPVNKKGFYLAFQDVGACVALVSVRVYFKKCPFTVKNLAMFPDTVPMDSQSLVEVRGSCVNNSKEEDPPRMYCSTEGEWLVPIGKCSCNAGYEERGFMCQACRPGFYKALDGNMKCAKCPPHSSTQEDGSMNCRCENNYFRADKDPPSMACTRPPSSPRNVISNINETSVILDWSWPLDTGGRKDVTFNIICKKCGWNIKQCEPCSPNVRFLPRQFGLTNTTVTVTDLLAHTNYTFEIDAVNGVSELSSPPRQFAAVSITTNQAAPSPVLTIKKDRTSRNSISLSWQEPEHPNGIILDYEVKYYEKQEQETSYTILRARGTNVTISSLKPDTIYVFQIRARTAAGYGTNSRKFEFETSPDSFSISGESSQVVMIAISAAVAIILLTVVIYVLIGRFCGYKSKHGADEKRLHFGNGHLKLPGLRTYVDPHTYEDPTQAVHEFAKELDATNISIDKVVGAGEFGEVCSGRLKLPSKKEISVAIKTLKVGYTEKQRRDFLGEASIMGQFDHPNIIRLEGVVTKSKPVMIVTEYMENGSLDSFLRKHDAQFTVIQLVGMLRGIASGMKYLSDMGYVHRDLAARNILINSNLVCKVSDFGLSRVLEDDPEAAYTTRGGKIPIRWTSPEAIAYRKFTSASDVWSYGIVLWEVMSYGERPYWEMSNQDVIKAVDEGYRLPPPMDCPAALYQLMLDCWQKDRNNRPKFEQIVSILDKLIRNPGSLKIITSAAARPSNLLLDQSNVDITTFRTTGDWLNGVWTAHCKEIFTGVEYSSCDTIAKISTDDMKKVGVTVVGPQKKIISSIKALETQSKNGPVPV
Particulars: 10 nM compound.

Another assay has as its system human PBMCs. The experiment in a line: Proliferation of anti-CD3/anti-CD28 stimulated PBMCs (120 h). It counts as cell-based. On the set-up: unit not given here. Particulars: +10 μM RapaBlock.

Several values for one entry are separate records, joined by “and”; a condition that tells them apart may be missing. Equal entries are not always repeated.

A word on the Kd: it is a measure of binding affinity in units of concentration. Consider `CCC(C)(C)C(=O)C(=O)N1CCCC[C@H]1C(=O)O[C@H](CCc1ccc(OC)c(OC)c1)c1cccc(NC(=O)[C@H](C)N)c1` [Compound 01-059], for which the Kd on FKBP12 worked out at 14 nM.
As to `Cc1nc(Nc2ncc(C(=O)Nc3c(C)cccc3Cl)s2)cc(N2CCN(CCO)CC2)n1` [Dasatinib], the “EPHA3 (LanthaScreen Binding)” value at 476 purified kinases amounted to 102.
Take `CO[C@H]1C[C@@H]2CC[C@@H](C)[C@@](O)(O2)C(=O)C(=O)N2CCCC[C@H]2C(=O)O[C@H]([C@H](C)C[C@@H]2CC[C@@H](O)[C@H](OC)C2)CC(=O)[C@H](C)/C=C(\C)[C@@H](O)[C@@H](OC)C(=O)[C@H](C)C[C@H](C)/C=C/C=C/C=C/1C` [Rapamycin]: the PBMC cell proliferation in the assay on human PBMCs (0.005081 nM Rapamycin) is 101.1 and 101.4; in the assay with human PBMCs (0.015242 nM Rapamycin) it was 108.2 and 104.6; in the assay on human PBMCs (0.045725 nM Rapamycin) it was 102.4 and 107.7; in the assay on human PBMCs (0.137174 nM Rapamycin) it was 110.4 and 105.5; in the assay on human PBMCs (0.411523 nM Rapamycin), 111.8 and 104.3; in the assay on human PBMCs (1.23457 nM Rapamycin), 114.6 and 108.6 and 104.2. This molecule also gave a PBMC cell proliferation with human PBMCs (3.7037 nM Rapamycin) of 106.2.
What is called Ki is a dissociation constant, usually derived from enzyme kinetics or from competition with a known ligand. In the case of `CCC(C)(C)C(=O)C(=O)N1CCCC[C@H]1C(=O)O[C@H](CCc1ccc(OC)c(OC)c1)c1cccc(N)c1` [SLF], on FKBP12 (FKBP12 Ki, Fig. 2d, fluorescein-labelled rapamycin tracer), the Ki was found to be 25 nM. For the same molecule, at FKBP12, the Kd was found to be 23 nM.
